For two compounds, Ki, Km and kcat results are on record in patent publication US7045532B2 (Millennium Pharmaceuticals, Inc., priority 1999, dated 2006).

The chains behind the UniProt entries cited, without tags or fusion partners. Residues count along the entry.
UniProt F1RRW5, 34-1309 limits assumed: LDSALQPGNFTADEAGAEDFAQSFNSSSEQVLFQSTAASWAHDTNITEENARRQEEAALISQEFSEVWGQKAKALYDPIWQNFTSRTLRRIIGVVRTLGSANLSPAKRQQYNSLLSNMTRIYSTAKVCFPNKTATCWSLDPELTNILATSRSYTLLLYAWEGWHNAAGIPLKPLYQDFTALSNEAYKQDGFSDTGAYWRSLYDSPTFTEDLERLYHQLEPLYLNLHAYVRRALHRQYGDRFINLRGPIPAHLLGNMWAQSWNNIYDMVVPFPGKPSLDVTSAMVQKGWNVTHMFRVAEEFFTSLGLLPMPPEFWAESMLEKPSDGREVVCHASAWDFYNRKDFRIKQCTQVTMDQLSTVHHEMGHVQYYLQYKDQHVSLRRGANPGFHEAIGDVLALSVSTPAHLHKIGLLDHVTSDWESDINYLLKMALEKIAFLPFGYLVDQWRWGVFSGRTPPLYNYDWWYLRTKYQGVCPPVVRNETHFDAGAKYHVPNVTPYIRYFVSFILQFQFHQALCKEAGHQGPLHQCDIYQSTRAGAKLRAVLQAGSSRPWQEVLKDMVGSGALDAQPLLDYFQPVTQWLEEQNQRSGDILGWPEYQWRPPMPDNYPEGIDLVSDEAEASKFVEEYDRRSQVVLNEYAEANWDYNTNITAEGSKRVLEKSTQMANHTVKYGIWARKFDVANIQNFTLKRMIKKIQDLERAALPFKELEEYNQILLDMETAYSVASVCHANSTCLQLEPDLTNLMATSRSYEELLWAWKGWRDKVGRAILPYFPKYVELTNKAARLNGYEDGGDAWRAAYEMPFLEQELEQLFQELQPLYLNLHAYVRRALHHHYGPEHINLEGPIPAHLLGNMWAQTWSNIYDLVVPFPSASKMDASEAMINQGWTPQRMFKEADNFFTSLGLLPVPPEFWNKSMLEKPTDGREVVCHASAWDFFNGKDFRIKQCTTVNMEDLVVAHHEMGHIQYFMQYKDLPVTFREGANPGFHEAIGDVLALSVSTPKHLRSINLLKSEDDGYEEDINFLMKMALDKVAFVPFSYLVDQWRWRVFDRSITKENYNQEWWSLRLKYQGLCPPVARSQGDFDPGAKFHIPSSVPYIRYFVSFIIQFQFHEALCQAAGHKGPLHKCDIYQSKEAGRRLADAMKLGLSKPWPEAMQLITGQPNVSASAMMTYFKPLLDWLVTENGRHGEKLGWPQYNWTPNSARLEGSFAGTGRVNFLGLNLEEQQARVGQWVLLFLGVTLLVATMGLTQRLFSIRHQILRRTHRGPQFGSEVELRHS
UniProt P00730, 111-419 limits assumed: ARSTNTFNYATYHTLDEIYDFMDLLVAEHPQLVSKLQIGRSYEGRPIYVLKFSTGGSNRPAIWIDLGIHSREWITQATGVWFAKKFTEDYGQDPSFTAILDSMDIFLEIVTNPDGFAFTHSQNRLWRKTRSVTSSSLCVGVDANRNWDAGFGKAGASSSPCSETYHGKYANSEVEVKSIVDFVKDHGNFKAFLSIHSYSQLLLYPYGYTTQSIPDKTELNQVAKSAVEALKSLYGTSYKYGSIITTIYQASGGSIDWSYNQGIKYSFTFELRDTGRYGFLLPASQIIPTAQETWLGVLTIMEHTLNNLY
UniProt Q9BYF1, 18-739 limits assumed: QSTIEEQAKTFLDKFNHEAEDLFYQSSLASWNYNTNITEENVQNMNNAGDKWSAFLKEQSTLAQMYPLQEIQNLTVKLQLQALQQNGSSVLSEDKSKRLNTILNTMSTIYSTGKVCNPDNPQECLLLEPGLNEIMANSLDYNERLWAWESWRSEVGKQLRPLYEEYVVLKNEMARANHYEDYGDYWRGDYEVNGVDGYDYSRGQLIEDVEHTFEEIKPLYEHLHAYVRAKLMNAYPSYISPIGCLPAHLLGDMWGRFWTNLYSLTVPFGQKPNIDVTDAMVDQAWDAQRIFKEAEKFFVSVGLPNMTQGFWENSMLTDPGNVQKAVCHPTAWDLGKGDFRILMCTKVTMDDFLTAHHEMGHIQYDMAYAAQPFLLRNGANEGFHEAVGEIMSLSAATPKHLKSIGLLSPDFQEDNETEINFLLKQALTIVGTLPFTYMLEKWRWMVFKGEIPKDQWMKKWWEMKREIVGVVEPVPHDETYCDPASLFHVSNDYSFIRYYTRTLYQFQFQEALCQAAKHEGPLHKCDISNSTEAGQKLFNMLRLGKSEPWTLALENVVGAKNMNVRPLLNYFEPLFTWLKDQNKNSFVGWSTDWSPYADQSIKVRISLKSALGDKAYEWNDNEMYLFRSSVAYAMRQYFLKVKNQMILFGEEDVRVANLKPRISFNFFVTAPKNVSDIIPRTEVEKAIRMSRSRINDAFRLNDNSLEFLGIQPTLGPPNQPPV

The target of one assay is ACE (Sigma, A2580) (Sus scrofa, UniProt F1RRW5). Description: ACE enzymatic activity assay. The note with it: read-out: ACE Activity; Ki class; compounds tested in 5% DMSO, 12 concentrations.
For the next assay, the target named is Carboxypeptidase A (Bos taurus, UniProt P00730). Description: Carboxypeptidase A activity assay. As to conditions: read-out: Carboxypeptidase A Activity; Ki class; compounds tested in 5% DMSO, 12 concentrations.
Another assay concerns the target ACE-2 (Homo sapiens, UniProt Q9BYF1). In words: Kinetic constants for ACE-2 hydrolysis of peptides (reversed phase LC). As to conditions: ACE-2 hydrolysis of the peptide, pH 6.5, room temperature. Type of assay: biochemical.

Some results are limits rather than exact numbers.

In the case of `O=C(O)[C@H](CC#Cc1ccccc1)N[C@H](CCc1ccccc1)C(=O)O`, the Ki is > 50 µM on ACE (Sigma, A2580) and 10 to 50 µM at Carboxypeptidase A.
What is called Km is the substrate concentration at which the rate is half of its maximum. The kcat is the maximal rate divided by the concentration of active sites. For the compound `CSCC[C@H](NC(=O)[C@@H]1CCCN1C(=O)CNC(=O)[C@H](CCCCN)NC(=O)[C@H](Cc1cnc[nH]1)NC(=O)[C@H](CO)NC(=O)[C@H](CC(C)C)NC(=O)[C@H](CCCNC(=N)N)NC(=O)[C@@H]1CCCN1C(=O)[C@H](CCCNC(=N)N)NC(=O)[C@@H](N)CCC(N)=O)C(=O)N1CCC[C@H]1C(=O)N[C@@H](Cc1ccccc1)C(=O)O`, at ACE-2, the Km turned out to be 8 µM and the kcat amounted to 14 s⁻¹.
